The target of assay [1] is T1, VBC protein (VHL:ElonginB:ElonginC protein complex) (Homo sapiens, UniProt P40337).
T1 construct: made in house
The format is binding. As to conditions: for GE (group efficiency): based on FP results, GE = ΔpKd/ΔHA (heavy atoms); for fold loss in binding affinity: relative to the comparator of the sentence (4: methyl to ethyl from 1; 20, 21: comparator not named).

Chains of the proteins cited; added tags and fusions are not shown. Residues count along the entry.
UniProt P40337, 54-213: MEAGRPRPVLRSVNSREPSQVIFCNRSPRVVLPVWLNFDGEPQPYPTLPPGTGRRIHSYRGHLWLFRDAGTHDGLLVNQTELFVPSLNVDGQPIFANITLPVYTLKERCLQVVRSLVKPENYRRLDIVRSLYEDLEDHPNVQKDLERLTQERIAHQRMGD

In assay [2] the target is T2, VBC complex (VHL:ElonginB:ElonginC) (Homo sapiens, UniProt P40337).
T2 construct: made in house
Format: binding. To be noted: on the basis of ITC results.

In another assay the test system is HIF-1α. As to conditions: HeLa HIF-1α stabilization, comparator not named.

With `Cc1ncsc1-c1ccc(CNC(=O)[C@@H]2C[C@@H](O)CN2C(=O)[C@@H](NC(=O)C2COC2)C(C)(C)C)cc1` [Inhibitor 19, (2S,4R)-1-((S)-3,3-Dimethyl-2-(oxetane-3-carboxamido)butanoyl)-4-hydroxy-N-(4-(4-methylthiazol-5-yl)benzyl)pyrrolidine-2-carboxamide], the “GE (group efficiency)” value in assay [1] is reported as “–0.11”. Further, in assay [2] (LE = −RT ln Kd/NHA), the LE is reported as 0.25 kcal × mol^-1 × NHA^-1. For the same compound, the LLE in assay [2] (LLE = pKd–Log D) worked out at 5.92 kcal × mol^-1 × NHA^-1. For the same compound, in the assay on HIF-1α, the “fold loss in cellular activity / potency” value was 4 fold.
In the case of `Cc1ncsc1-c1ccc(CNC(=O)[C@@H]2C[C@@H](O)CN2C(=O)[C@@H](NC(=O)C2CC(=O)C2)C(C)(C)C)cc1` [Inhibitor 20, (2S,4R)-1-((S)-3,3-Dimethyl-2-(3-oxocyclobutanecarboxamido)butanoyl)-4-hydroxy-N-(4-(4-methylthiazol-5-yl)benzyl)pyrrolidine-2-carboxamide], in assay [1], the “GE (group efficiency)” value was “–0.13” and the “fold loss in binding affinity” value came out at 2 fold. Besides, the “fold loss in cellular activity / potency” value with HIF-1α was 5 fold.
`CC(=O)N1CC(C(=O)N[C@H](C(=O)N2C[C@H](O)C[C@H]2C(=O)NCc2ccc(-c3scnc3C)cc2)C(C)(C)C)C1` [Inhibitor 21, (2S,4R)-1-((S)-2-(1-Acetylazetidine-3-carboxamido)-3,3-dimethylbutanoyl)-4-hydroxy-N-(4-(4-methylthiazol-5-yl)benzyl)pyrrolidine-2-carboxamide]: in assay [1], the “GE (group efficiency)” value is given as “–0.25” and the “fold loss in binding affinity” value is on record as 20 fold. Moreover, the “fold loss in cellular activity / potency” value in the assay on HIF-1α worked out at 11 fold.
